Data: PubChem BioAssay AID602283 (Johns Hopkins Ion Channel Center, 2012)
Only a part is listed here, and it is no random draw. The source made the active and inactive calls.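 How the source made its calls: active means inhibition exceeding 3 SD of buffer-only control wells (cut at about 26% in these data); inactive means the rest.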

experiment: carbachol calcium response changes in non-induced cells, primary screen, counter-screen for RGS4 activator project, cell-based, HEK293 M3R, non-induced RGS4, Fluo-4 calcium (AID 602283); details: HEK293 M3R non-induced RGS4, Fluo4 calcium flux; at 10 µM; stronger effect = higher value; after carbachol challenge at its EC90;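 further: percent drop in integrated peak-minus-baseline over baseline Fluo4 ratio after carbachol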

SMILES	inhibition
O=C(OC1CN2CCC1CC2)C12CC3CC(CC(C3)C1)C2 (stereo not given)	active: 94.3%
CN(C(=O)Cc1ccccc1)[C@@H]1CC[C@]2(CCCO2)C[C@H]1N1CCCC1	inactive: 0%
O=C(OC1CN2CCC1CC2)c1ccc(Cl)cc1 (stereo not given)	active: 83.8%
O=C(OC1CN2CCC1CC2)c1cccc(Cl)c1 (stereo not given)	active: 29.8%
CN1CCCC(OC(=O)C(c2ccccc2)c2ccccc2)C1 (stereo not given)	active: 72.8%
